This data set can be described thus: Size, polydispersity index and zeta potential determination (Malvern Zetasizer). Type of data set: physicochemical. The conditions noted are these: compound encapsulated in zein core-shell particles. The method, then:
Nanoparticles (2 mg) and micelles (2 mg) were dispersed in 2 ml of purified water and bath sonicated for 1 min. They were then centrifuged at 10000 rpm for 5 min and diluted 50 times with distilled water. About 50 μl of the nanoemulsion was taken and dilated to 1 mL using distilled water. A liposome dispersion was diluted 100 times using purified water and probe sonicated for 1 min using 20% amplitude. The sizes, polydispersity indexes, and zeta potentials, were measured with a Malvern Zetasizer.
Nanoparticles (2 mg) were dispersed in 1 ml of purified water and probe sonicated for 1 min using 20% amplitude. Subsequently, the sonicated particles were diluted 10 times with distilled water and properties were measured using a Malvern Zetasizer.
Size, polydispersity index and zeta potential determination: nanoparticles (50 μl), nanoemulsions (squalene) (50 μl) and nanomicelles (2 mg) were dispersed in 2 ml of purified water separately, vortex for 1 min. Further, the size, polydispersity index and zeta potential were measured with a Malvern Zetasizer.

Here are results for one compound from patent US20140234420A1, “Method of Treating Skin Disorders using Nanoscale Delivery Devices and Transdermal Enhancing Compositions” (priority 2008, published 2014).

Take `O=c1ccc2ccccc2o1` [Coumarin, coumarin]: the “Particle Size” value is reported as 173 ± 20 nm.
